Reference: paper PMC11236204 (PLOS Pathogens, 2024)

How the values were obtained:
[1] = test system: Cxcl1, Ccl2 RNA; assay: Inflammatory gene expression by qPCR, wild type or TLR2 KO mouse neurons; details: Wt vehicle = 1; for Rel. Fold change Cxcl1 RNA: Fig 4K; for Rel. Fold change Ccl2 RNA: Fig 4L
[2] = test system: Ifit2, Cxcl10, Tnfa, Cxcl1 RNA; assay: ISG and inflammatory gene expression by qPCR, rat cortical neurons; type: cell-based; details: vehicle = 1; for Rel. Fold change Cxcl1 RNA: Fig 4D; for Rel. Fold change Cxcl10 RNA: Fig 4E

SMILES: CCCCCCCCCCCCCCCC(=O)N[C@@H](CSCC(COC(=O)CCCCCCCCCCCCCCC)OC(=O)CCCCCCCCCCCCCCC)C(=O)N[C@@H](CO)C(=O)N[C@@H](CCCCN)C(=O)N[C@@H](CCCCN)C(=O)N[C@@H](CCCCN)C(=O)N[C@@H](CCCCN)C(=O)O (stereo partly drawn) [Pam3CSK4]
- Rel. Fold change Cxcl1 RNA ([1]; TLR2 KO, replicate 1): 1.167
- Rel. Fold change Cxcl1 RNA ([1]; TLR2 KO, replicate 2): 1.559
- Rel. Fold change Cxcl1 RNA ([1]; TLR2 KO, replicate 3): 5.824
- Rel. Fold change Cxcl1 RNA ([1]; Wt, replicate 1): 719.015
- Rel. Fold change Cxcl1 RNA ([1]; Wt, replicate 2): 355.675
- Rel. Fold change Cxcl1 RNA ([1]; Wt, replicate 3): 745.984
- Rel. Fold change Ccl2 RNA ([1]; TLR2 KO, replicate 1): 1.274
- Rel. Fold change Ccl2 RNA ([1]; TLR2 KO, replicate 2): 1.988
- Rel. Fold change Ccl2 RNA ([1]; TLR2 KO, replicate 3): 93.9616
- Rel. Fold change Ccl2 RNA ([1]; Wt, replicate 1): 293.382
- Rel. Fold change Ccl2 RNA ([1]; Wt, replicate 2): 459.401
- Rel. Fold change Ccl2 RNA ([1]; Wt, replicate 3): 5408.45
- Rel. Fold change Cxcl1 RNA ([2]; replicate 1): 896.541
- Rel. Fold change Cxcl1 RNA ([2]; replicate 2): 1514.5
- Rel. Fold change Cxcl1 RNA ([2]; replicate 3): 660.399
- Rel. Fold change Cxcl10 RNA ([2]; replicate 1): 607.751
- Rel. Fold change Cxcl10 RNA ([2]; replicate 2): 2363.87
- Rel. Fold change Cxcl10 RNA ([2]; replicate 3): 680.019
